Results from patent US20220062291A1, “COMPOSITIONS AND METHODS OF TREATING CANCERS BY ADMINISTERING A PHENOTHIAZINE-RELATED DRUG THAT ACTIVATES PROTEIN PHOSPHATASE 2A (PP2A) WITH REDUCED INHIBITORY ACTIVITY TARGETED TO THE DOPAMINE D2 RECEPTOR AND ACCOMPANYING TOXICITY” (DANA-FARBER CANCER INSTITUTE, INC., priority 2018, published 2022).

Test: Dose-dependent neurological toxicity in mice
Conditions: up to 80 mg/kg body weight/dose, per orally every 24 hours

For `COc1ccc(C(=O)N2c3ccccc3Sc3ccc(Cl)cc32)cc1` [iPAP1], which neurological toxicity is on record?
The neurological toxicity was “did not show any neurological toxicity”.
